Reference: US7030093B2, “Antibiotic coating for porous bodies and method for its production as well as its use” (HERAEUS Kulzer GmbH & Co. KG, priority 2002, dated 2006)

assay: Release of the antibiotic from the salts in an aqueous environment (finding in words); type: physicochemical; settings: method not given

Release of the underlying antibiotic in an aqueous environment, in a delayed fashion:
kanamycin laurate, kanamycin dodecyl sulfate, kanamycin myristate
